Patent US8557298B2, “Medicaments for chemotherapeutic treatment of disease” (Provectus Pharmatech, Inc., priority 1998, dated 2013)

Tested on: various murine tumors

Structure (SMILES): CC1(C)C(/C=C/C=C/C=C/C=C2\N(CCCCS(=O)(=O)O)c3ccc4ccccc4c3C2(C)C)=[N+](CCCCS(=O)(=O)[O-])c2ccc3ccccc3c21 [Indocyanine Green]
- Chemotherapeutic effect after i.t. administration: no chemotherapeutic effect was evidenced
